Patent US20070249501A1 (priority 2004, published 2007)

What was measured:
[1] = Degradation of bromopicrin in soil (HPLC, GC-MS); conditions: 5 mg bromopicrin to 1,000 grams Rehovot sand soil (95% sand); 0.5, 3 and 7 days
[2] = cited from earlier work
[3] = system: total aerobic bacteria; assay: Viability of soil-borne bacteria in treated soil: total bacteria; conditions: applied to soil at 30 ppm; 7 days at 25° C.
[4] = system: tomato (cv. 870) seedlings; assay: Residual phytotoxicity of treated soil to tomato seedlings; conditions: dosage of 10-30 ppm; soil aerated ten days

Structure (SMILES): O=[N+]([O-])C(Br)(Br)Br
- dissipation of bromopicrin in soil [1]: rapidly dissipates in soil
- Solubility in Water [2]: Slightly
- density of total aerobic bacteria in soil [3]: about 6×10^5 cfu/g
- root system development compared with the untreated control [4]: developed larger root systems
